Laboratory results reported in US20120277211A1, “METHODS AND COMPOSITIONS FOR THE TREATMENT OF PSYCHOTIC DISORDERS THROUGH THE IDENTIFICATION OF THE SULT4A1-1 HAPLOTYPE” (priority 2009, published 2012).
Read-outs that look alike come from different tables or passages of the source. Marks after values point to notes of the source that are not given here.

Test system: schizophrenia patients

SMILES | HR, discontinuation due to TAEs (SULT4A1-1 positive olanzapine / SULT4A1-1 negative olanzapine) | HR, discontinuation due to treatment emergent side effects (SULT4A1-1 positive risperidone / SULT4A1-1 positive all other drugs) | HR, discontinuation due to treatment emergent side effects (Unsegmented risperidone / Unsegmented all other drugs)
Cc1cc2c(s1)Nc1ccccc1N=C2N1CCN(C)CC1 [Olanzapine] | 0.67^b | – | –
Cc1nc2n(c(=O)c1CCN1CCC(c3noc4cc(F)ccc34)CC1)CCCC2 [Risperidone] | – | 0.73^a | 0.52^a
